Laboratory results reported in US9376418B2, “Substituted pyridine spleen tyrosine kinase (SYK) inhibitors” (Merck Sharp & Dohme Corp., priority 2012, dated 2016).
Where two headings read alike, the source gives them in different places.

Target: recombinant human GST-SYK (Homo sapiens, UniProt P43405)
Assay: Homogeneous Time-Resolved Fluorescence (HTRF) assay for the recombinant human Syk enzyme
Assay type: biochemical
[1] = read-out: rhSYK Activity, IC50 given as class symbols, tested form: formate

Compound | IC50 [1] [nM] | also measured
Cc1cc(Nc2nccc(C(F)(F)F)n2)cc(-c2cncc(N3CCCNC(=O)C3)c2)c1 | – | IC50 (read-out: rhSYK Activity, IC50 given as class symbols, tested form: TFA salt, formate): < 100 nM
Cc1cc(Nc2nccc(C(F)(F)F)n2)cc(-c2cncc(Nc3ccncc3)c2)c1 | < 100 | –
Cc1cc(Nc2nccc(C(F)(F)F)n2)cc(-c2cncc(N3CCCC34CCCNC4=O)c2)c1 (stereo not drawn) | < 100 | –
Cc1cc(Nc2nccc(C(F)(F)F)n2)cc(-c2cncc(N3CCNC(=O)C3(C)C)c2)c1 | < 100 | –
Cc1cc(Nc2nccc(C(F)(F)F)n2)cc(-c2cncc(N3CCN(C)C(=O)C3)c2)c1 | < 100 | –
Cc1cc(Nc2nccc(C(F)(F)F)n2)cc(-c2cncc(N3CCCC34CCNC4=O)c2)c1 (stereo not drawn) | < 100 | –
Cc1cc(Nc2nccc(C(F)(F)F)n2)cc(-c2cncc(NCc3ccncc3)c2)c1 | < 100 | –
COC(=O)C1CCC(O)(c2cc(-c3cc(C)cc(Nc4nccc(C(F)(F)F)n4)c3)ccn2)CC1(C)C (stereo not drawn) | – | IC50 (read-out: rhSYK Activity, IC50 given as class symbols, tested form: free base): 100 to 1000 nM
Cc1cc(Nc2nccc(C(F)(F)F)n2)cc(-c2cncc(N3CCC(C(N)=O)CC3)c2)c1 | < 100 | –
Cc1cc(Nc2nccc(C(F)(F)F)n2)cc(-c2cncc(Nc3ccon3)c2)c1 | 100 to 1000 | –
Cc1cc(Nc2nccc(C(F)(F)F)n2)cc(-c2cncc(N3CCNC(=O)CC3)c2)c1 | < 100 | –
Cc1cc(Nc2nccc(C(F)(F)F)n2)cc(-c2cncc(C(=O)NC3CC3)c2)c1 | – | IC50 (read-out: rhSYK Activity, IC50 given as class symbols, tested form: TFA salt): < 100 nM

Now from value to molecule, other results behind:

IC50 [1] [nM] | Compound | also measured
< 100 | Cc1cc(Nc2nccc(C(F)(F)F)n2)cc(-c2cncc(N3CCN(C)CC3)c2)c1 | –
< 100 | Cc1cc(Nc2nccc(C(F)(F)F)n2)cc(-c2cncc(N3CC(O)C3)c2)c1 | –
< 100 | Cc1cc(Nc2nccc(C(F)(F)F)n2)cc(-c2cncc(N3CCC(O)C3)c2)c1 (stereo not drawn) | –
< 100 | Cc1cc(Nc2nccc(C(F)(F)F)n2)cc(-c2cncc(N3CCOCC3)c2)c1 | –
< 100 | Cc1cc(Nc2nccc(C(F)(F)F)n2)cc(-c2cncc(N3CCNC(=O)C3)c2)c1 | –
< 100 | Cc1cc(Nc2nccc(C(F)(F)F)n2)cc(-c2cncc(N3CCC4(CC3)OCCO4)c2)c1 | –
